Assays:
[1] = target: human trkC receptor immunoadhesin (trkC extracellular domain fused to immunoglobulin constant domains), human, Q16288 32-429
[2] = target: human trkA receptor immunoadhesin (trkA extracellular domain fused to immunoglobulin constant domains), human, P04629 33-423

NGFR4
IC50mut/IC50NGF12 [1]: 1 | IC50mut/IC50NT-3 [1]: 14.8 | IC50mut/IC50NGF [2]: 1.5

From patent US6365373
